Where two headings read alike, the source gives them in different places.
Test system: uninfected Vero E6 cells
Settings: for cytotoxic effects: with or without virus

O=C1CN(/N=C/c2ccc(-c3ccc([N+](=O)[O-])cc3)o2)C(O)=N1 [dantrolene]
cytopathic effects in uninfected controls (50 μM dantrolene, Day 2, no virus): cytopathic effects | cytopathic effects in uninfected controls (50 μM dantrolene, Day 4, no virus): cytopathic effects | cytotoxic effects (50 μM dantrolene): Cytotoxic effects | cytopathic effects in uninfected controls (100 μM dantrolene, Day 2, no virus): cytopathic effects | cytopathic effects in uninfected controls (100 μM dantrolene, Day 4, no virus): cytopathic effects | cytotoxic effects (100 μM dantrolene): Cytotoxic effects | cell viability of uninfected Vero E6 cells (lower dilutions (<50 μM dantrolene)): good cell viability

Source: US12605364B2, “Methods of treating SARS-CoV-2 infections” (priority 2020, dated 2026)
